This note sets out measurements from patent US11279734B2, “Solution-phase affinity selection of inhibitors from combinatorial peptide libraries” (Massachusetts Institute of Technology, priority 2017, dated 2022).

Sequences of proteins named here, by UniProt entry; tags and fusion partners are left off. Residues count along the entry.
UniProt Q00987, 25-109, looked up: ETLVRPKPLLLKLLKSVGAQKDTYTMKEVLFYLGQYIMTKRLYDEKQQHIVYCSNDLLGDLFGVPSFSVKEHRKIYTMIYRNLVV

The nature of one data set: Solubility limit. The data set is classed as physicochemical.
The next data set deals with SUMO-25-109 MDM2 (Homo sapiens, UniProt Q00987). The data set is classed as binding. To be noted: biotin labeled peptide immobilized to streptavidin sensors; global fitting of association and dissociation curves.
A further data set concerns the target T1, 1-137MDMX (Homo sapiens, UniProt O15151).
T1 construct: Human ^1-137MDMX was purchased from Abcam (ab167947); purchased Abcam ab167947
T1 sequence (O15151 1-137): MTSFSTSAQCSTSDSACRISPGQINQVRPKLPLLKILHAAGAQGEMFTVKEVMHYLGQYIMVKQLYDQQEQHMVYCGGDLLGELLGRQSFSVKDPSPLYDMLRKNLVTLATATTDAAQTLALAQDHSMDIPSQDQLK
The data set is classed as binding. To be noted: biotin labeled peptide immobilized to streptavidin sensors; global fitting.

Take LTFEHYWAQLTSK [peptide 6]: the solubility limit in “Solubility limit” was about 10000 µg/mL. As to “LTFEHYWAQLTSK [peptide 6a, reference compound]”, the Kd at SUMO-25-109 MDM2 amounted to 47 ± 2 nM; on 1-137MDMX, 83 ± 4 nM.
